Reported melting point values for industrial, environmental and drug-like chemicals

Source: data files of OPERA 2.9 (Mansouri et al.), github.com/kmansouri/OPERA.

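The OPERA project collected these measurements from public sources as training and test data for property models. The files give a single number for a compound and property, which may rest on several reports. Method, purity and exact conditions of the single measurements are not given. A value may pool stereoisomers or salt forms, and the file does not say which form was measured. Some upstream entries may be estimates or bounds without being marked so.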

The melting point is given in degrees Celsius. The databases behind each value are named after "via".

compound,mp (°C),via
Cc1cc(C)c2c(N)nsc2n1,181,OCHEM
Cc1c(C(=O)O)oc2c(Cl)cccc12,230,OCHEM
O=C1CCCCCN1CO,65,OCHEM
CC1=NC(=C2C=CC(=O)C=C2)NO1,187,OCHEM
Cc1ccc(S(=O)(=O)N(C)C)cc1N,173,OCHEM
CCCCCCOC(=O)c1ccc(N)cc1,62,QSARDB
Cc1ccc(C(C)(C)O)cc1,9,PubChem
O=C1CCc2cc(C(=O)O)ccc2N1,262,OCHEM
O=C(O)c1ccc(-n2cnnn2)cc1,225,OCHEM
N#CCc1cccc2cccnc12,85,OCHEM
CC(=O)c1ccc2c(c1)CCC(=O)N2,163,OCHEM
C=CCn1c(=S)[nH]c2sc3c(c2c1=O)CCC(C)C3 (stereo not given),229,OCHEM
COc1ccc(C=NO)cc1OCc1ccccc1,76,OCHEM
O=C(O)c1ccccc1OCCOc1ccccc1,85,OCHEM
Nc1nc(-c2ccccc2)c(-c2ccccc2)s1,182,OCHEM
Cc1cc(/N=N/c2c(S(=O)(=O)[O-])cc3cc(Nc4ccccc4)ccc3c2[O-])c([O-])cc1/N=N/c1cc(S(=O)(=O)[O-])c2cccc(S(=O)(=O)[O-])c2c1.[Cu+2].[Na+].[Na+].[Na+],269,eChemPortal
O=C1COc2cc(C(=O)O)ccc2N1,322,OCHEM
COC(=O)c1n[nH]c(=O)c2ccccc12,128,OCHEM
CCCC(=O)OCC=Cc1ccccc1,-3.16,eChemPortal
NC(=O)CCNCc1ccccc1,165,OCHEM
S=c1nc(-c2ccccc2Br)[nH][nH]1,196,OCHEM
CCOc1ccc(C(=O)O)cn1,185,OCHEM
CC1CCN(Cc2ccc(N)cc2)CC1,62,OCHEM
FC(F)(F)C(F)(F)C(F)(F)C(F)(F)CC[SiH2]C(Cl)Cl,-42.3,eChemPortal
CC(Br)C(=O)C12CC3CC(CC(C3)C1)C2 (stereo not given),87,OCHEM
O=C(Nc1ccccc1C(=O)O)c1ccccc1,180,OCHEM
CCOc1ccc(C(=O)CCl)cc1,64,OCHEM
CCN(CC)CCN1c2ccccc2Sc2ccccc21.Cl,185,OCHEM
CCCCCCCCCCCCCCOC(=O)CCCCCCCCCCC,37.11,eChemPortal
Nc1ccc(-c2nc3ccccc3s2)cc1,150,OCHEM
O=c1[nH]cnc2scc(-c3ccc(F)cc3)c12,232,OCHEM
COc1ccnc(CSc2nc3ccc(OC(F)F)cc3[nH]2)c1OC,115,eChemPortal
CC=Cc1ccc(OCC(=O)O)c(OC)c1,118,OCHEM
Cc1noc(N)c1C(=O)O,152,OCHEM
CC(C)(C)N(NC(=O)c1ccccc1)C(=O)c1cccc(F)c1,176,OCHEM
O=S(=O)(c1ccc(F)cc1)N1CCNCC1,113,OCHEM
O=C(O)c1ccc(C(c2ccc(C(=O)O)c([N+](=O)[O-])c2)(C(F)(F)F)C(F)(F)F)cc1[N+](=O)[O-],236.5,ChemicalBook
CCOC(=O)Cc1cnc(C)nc1Cl,35.5,PubChem
CNC(=O)c1c(I)c(C(=O)NCC(=O)Nc2c(I)c(C(=O)O)c(I)c(C(=O)NCCO)c2I)c(I)c(N(C)C(C)=O)c1I,254,PubChem
Cc1cc(N)n(Cc2ccccc2)n1,69,OCHEM
CNC(=O)c1ccc(Cl)c(N)c1,145,OCHEM
O=C(O)C#Cc1cccc(Cl)c1,144.7,PubChem
O=[N+]([O-])c1ccc(S(=O)(=O)C(F)(F)F)cc1,82,OCHEM
Cc1nsc(Nc2ccccc2)c1C#N,173,OCHEM
CN(C)S(=O)(=O)c1ccc(Cl)c([N+](=O)[O-])c1,105,OCHEM
CC1CCc2sc(C(=O)O)cc2C1 (stereo not given),134,OCHEM
Cc1c(C(=O)O)oc2ccc(Cl)cc12,256,OCHEM